Values quoted from earlier work as cited in patent publication EP3783012A1, “AN ANTIMICROBIAL PEPTIDE” (priority 2019, dated 2021).
Read-outs that look alike come from different tables or passages of the source.

How the values were obtained:
[1] = cited from earlier work
[2] = in vivo; cited from earlier work
lipoproteins = settings: binding to lipoproteins; cited from earlier work

Row | Substance | half-life ([1]; healthy human volunteers) | plasma half life time [2] | half-life ([1]; in humans) | fraction unbound (lipoproteins)
1 | desmopressin | 3.7 h |  |  | 
2 | octreotide |  | 1.5 h | about 100 min | 0.65
